Measured values from PMC9866728, “Dosing Methods to Enable Cell-Based In Vitro Testing of Complex Substances: A Case Study with a PAH Mixture” (Toxics, 2022).
“And” between values parts separate entries of the source, which are not always exact repeats. Equal entries are not always repeated.

Details: STOCK_10_R1-R3 (replicates) of the block 10 ug/mL MAF, 24 hr exposure; raw GC-MS/MS analyte/ISTD response ratio

c1ccc2c(c1)-c1cccc3cccc-2c13 [Fluoranthene]
ISTD Resp. Ratio, stock: 474.113 and 473.435
